Chains of the proteins cited; added tags and fusions are not shown. Residues count along the entry.
UniProt P35222, 138-781 limits assumed: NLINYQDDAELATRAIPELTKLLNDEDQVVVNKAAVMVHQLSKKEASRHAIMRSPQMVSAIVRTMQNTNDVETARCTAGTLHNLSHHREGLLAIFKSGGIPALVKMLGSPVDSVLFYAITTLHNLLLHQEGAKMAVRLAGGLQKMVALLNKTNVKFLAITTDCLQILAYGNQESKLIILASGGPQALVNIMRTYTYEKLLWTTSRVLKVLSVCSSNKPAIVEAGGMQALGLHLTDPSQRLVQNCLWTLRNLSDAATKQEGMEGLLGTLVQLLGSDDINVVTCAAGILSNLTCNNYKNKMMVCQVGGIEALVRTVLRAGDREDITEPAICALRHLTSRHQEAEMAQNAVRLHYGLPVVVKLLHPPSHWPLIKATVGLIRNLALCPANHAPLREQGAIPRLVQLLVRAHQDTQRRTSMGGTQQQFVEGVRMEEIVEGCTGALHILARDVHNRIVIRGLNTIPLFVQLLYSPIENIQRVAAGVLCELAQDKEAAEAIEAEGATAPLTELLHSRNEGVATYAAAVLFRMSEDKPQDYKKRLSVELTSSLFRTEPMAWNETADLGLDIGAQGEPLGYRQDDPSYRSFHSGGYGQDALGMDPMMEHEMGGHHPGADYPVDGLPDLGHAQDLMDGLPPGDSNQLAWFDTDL

In US20250289848A1, “PEPTIDOMIMETIC INHIBITORS OF B-CATENIN/TCF PROTEIN-PROTEIN INTERACTION” (H. LEE MOFFITT CANCER CENTER AND RESEARCH INSTITUTE, INC., priority 2018, published 2025):

Key:
[1] = biological target: β-catenin/APC-R3 interaction (Homo sapiens (Human), UniProt P35222); type: binding; conditions: read-out: Ki ± SD β-catenin/APC; FP selectivity assay; mean ± SD, n = 3
[2] = biological target: β-catenin/E-cadherin interaction (Homo sapiens (Human), UniProt P35222); type: binding; conditions: read-out: Ki ± SD β-catenin/E-cadherin; FP selectivity assay; mean ± SD, n = 3

With `O=C(O)CC[C@H](NC(=O)[C@H](Cc1nn[nH]n1)NC(=O)[C@H](Cc1ccc2ccccc2c1)NC(=O)c1cc2c(Cl)cc(Cl)cc2[nH]1)C(=O)Nc1ccc(OC(F)(F)F)cc1` [Compound 57, (S)-4-((S)-2-((S)-2-(4,6-Dichloro-1H-indole-2-carboxamido)-3-(naphthalen-2-yl)propanamido)-3-(2H-tetrazol-5-yl)propanamido)-5-oxo-5-((4-(trifluoromethoxy)phenyl)amino)pentanoic acid] the Ki [1] was 173 ± 15 µM and the Ki [2] was 13 ± 0.6 µM.
